Results published in paper PMC3795654, “Combinatorial Optimization of Cystine-Knot Peptides towards High-Affinity Inhibitors of Human Matriptase-1” (PLoS ONE, 2013).

Chains of the proteins cited; added tags and fusions are not shown. Residues count along the entry.
UniProt P00760, 24-246 limits assumed: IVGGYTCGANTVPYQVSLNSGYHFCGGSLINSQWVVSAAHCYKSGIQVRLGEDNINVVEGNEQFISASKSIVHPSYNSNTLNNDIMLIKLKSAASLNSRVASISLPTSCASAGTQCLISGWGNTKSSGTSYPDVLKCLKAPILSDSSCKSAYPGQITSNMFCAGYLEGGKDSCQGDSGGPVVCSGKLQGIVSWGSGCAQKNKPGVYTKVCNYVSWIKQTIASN
UniProt Q9Y5Y6, 615-855 limits assumed: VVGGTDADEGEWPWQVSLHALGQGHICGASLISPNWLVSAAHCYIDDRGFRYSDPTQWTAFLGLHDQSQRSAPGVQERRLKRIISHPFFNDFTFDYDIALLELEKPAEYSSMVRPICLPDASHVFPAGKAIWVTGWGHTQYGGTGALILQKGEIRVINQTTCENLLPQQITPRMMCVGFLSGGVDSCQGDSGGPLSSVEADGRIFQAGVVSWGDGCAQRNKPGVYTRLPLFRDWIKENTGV

Key:
[1] = target: Bovine pancreatic trypsin (Bos taurus, UniProt P00760); assay: Trypsin inhibition assay (substrate-independent Ki); details: read-out: Ki (Trypsin); substrate-independent Ki from Ki app (Morrison equation) and Km; 250 µM substrate; preincubation 30 min RT; read over 30 min; triplicate
Method: Human matriptase-1 was produced recombinantly, autocatalytically activated and purified as previously reported, [49], [51], [60]. Bovine pancreatic trypsin, thrombin and uPA were purchased from Sigma-Aldrich and Hepsin from R&D Systems.
Measurements were carried out in triplicate using a Tecan Genios ELISA reader. The normalized residual proteolytic activity (v/v0) of proteases was determined using substrates Boc-QAR-pNA (250 µM, (pNA stands for para-nitro aniline), Boc-QAR-AMC (250 µM, AMC stands for amino-methyl coumarin) or Spectrozym tPA (250 µM, American Diagnostica, CH3SO2-D-CHT-Gly-Arg-pNA AcOH). Product formation was monitored after preincubation (30 min, RT) with inhibitor at different concentrations over 30 min by measuring the absorbance at 405 nm for pNA substrates or the fluorescence emission for AMC substrates (ex. 360 nm, em. 465 nm), respectively. Selectivity data were carried out in duplicates with final protease concentrations of uPA and thrombin of 5 nM. In case of hepsin 50 mM Tris/HCl pH 9.0 was used as assay buffer.
Apparent inhibition constants (Ki ^app) were calculated by fitting the Morrison equation (1) for tight-binding inhibitors to the relative reaction velocity using non-linear regression (Marquardt-Levenberg algorithm, Sigma Plot 11). […]
Substrate-independent inhibition constants Ki were calculated from Ki ^app and Km of the enzyme according to (2). […]

[2] = tested on: uPA activation by matriptase-1 on the surface of PC-3 cells; assay: Cell inhibition assay: uPA activation by matriptase-1 on the surface of PC-3 cells; assay type: cell-based, human
[3] = target: matriptase-1; details: cited from earlier work
[4] = target: Human matriptase-1 (Homo sapiens, UniProt Q9Y5Y6); assay: Matriptase-1 inhibition assay (Ki / Ki app); details: read-out: Ki (Matriptase-1); substrate-independent Ki from Ki app (Morrison equation) and Km; 250 µM substrate; preincubation 30 min RT; read over 30 min; triplicate

## N=C(N)c1cccc(C[C@H](NS(=O)(=O)c2cccc(NC(=O)CCN)c2)C(=O)N2CCC(CCN)CC2)c1
[1]
  Ki: 0.118 µM
[2]; 1×10^5 PC-3 cells, 250 µM Bz-β-Ala-Gly-Arg-pNA, overnight, absorbance 405 nm, Figure 4
  IC50: 2.82 µM
[2]; PC-3 cells, uPA activation assay
  IC50 relative to MCoTI-based inhibitor Var. 4: tenfold higher
[3]
  Ki (matriptase-1): single digit nanomolar range
[4]
  Ki: 0.0071 µM

## N=C(N)c1cccc(C[C@H](NS(=O)(=O)c2ccc(C3CCCCC3)cc2)C(=O)N2CCC(C(=O)N3CCN(C(=N)N)CC3)CC2)c1
[1]
  Ki: 0.544 µM
[4]
  Ki: 0.0282 µM
